Measured affinities in a library of Ab-14 light chain variants

Source: Li et al. 2023 (doi:10.1038/s41467-023-39022-2), MIT Lincoln Laboratory and A-Alpha Bio; data file from the FLAb repository.

Target peptide (SARS-CoV-2 spike, HR2 region): PDVDLGDISGINAS

Each scFv is VH, three GGGGS repeats, VL, as in the parent Ab-14, and differs from it in the CDRs of the light chain only.
VH: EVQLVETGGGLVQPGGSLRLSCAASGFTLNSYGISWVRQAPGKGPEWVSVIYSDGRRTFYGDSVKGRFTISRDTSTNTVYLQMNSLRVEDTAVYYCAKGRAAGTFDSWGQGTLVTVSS
VL: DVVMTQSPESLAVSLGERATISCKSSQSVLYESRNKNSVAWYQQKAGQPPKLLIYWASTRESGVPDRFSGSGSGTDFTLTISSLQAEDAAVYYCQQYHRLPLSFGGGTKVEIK

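The starting antibody came from a phage panning campaign against this peptide. The variants were designed computationally from a first round of random CDR variants and then made and measured. Their group label is 14L_GP_Gen (GP: Gaussian process model; Gen: genetic algorithm; a sequence that several methods proposed may carry one label only). Affinity was read by AlphaSeq, a pooled yeast mating assay with surface-displayed partners. After mating in shaken culture at 30 °C for 16 h, diploids were selected and their barcode pairs sequenced. The ratio of observed to expected reads was calibrated, replicate by replicate, on BCL2-family standards whose Kd was known from biolayer interferometry. The assay was run in six technical replicates.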

Variants are written as CDR1, CDR2 and CDR3 of the light chain (limits as in the source). Parent: KSSQSVLYESRNKNSVA, WASTRES, QQYHRLPLS. Scale: log10 of Kd in nM, estimated from mating counts; low values are strong binders. A mean of the replicates is given; it leaves out those without a signal. Three control strains display no target. For all light chain designs, 4% of the pairings with them gave a signal, with a median of 2.64 and one signal in twenty below 1.59, so weak values seen in few replicates may be background. For each scFv, signals with the empty controls are counted beside the result, with their mean in brackets. Values of this round are not directly comparable with the first-round values of the same sequences. Of ten entries with the parent sequence, four were seen in most replicates (averages 0.34 to 2.37), three in one and three in none, so single entries are noisy. In the paper, a design with two or fewer of six values counts as a poor binder.

| # | CDR-L1 | CDR-L2 | CDR-L3 | log10 Kd (nM) by replicate | log10 Kd (nM), mean | signal with controls |
|---|---|---|---|---|---|---|
| 1 | KFQQSVLYESRNKNSVA | GASTRLS | QQYHRLPLS | -0.13 -0.03 -0.12 -0.15 0.01 0.13 | -0.05 | 2 of 18 (3.01) |
| 2 | KMSQSELYESRNKNSVA | NASTRMS | QQYHRLPLS | 0.70 1.10 0.86 0.26 1.54 1.57 | 1.01 | 0 of 18 |
| 3 | KLPQSVLYESRNKNSVA | GASTREV | QQYHRLPLS | -0.19 0.06 -0.33 -0.31 -0.28 -0.10 | -0.19 | 3 of 18 (2.97) |
| 4 | KLSQSELYEERNKNSVA | NASQRES | QQYHRLPLS | 0.01 0.17 0.09 -0.36 -0.44 0.02 | -0.09 | 0 of 18 |
| 5 | KLMQSVLYESRMKNSVA | NASTRES | QQYHRLPLS | 0.16 -0.06 -0.02 -0.06 -0.07 0.24 | 0.03 | 0 of 18 |
| 6 | KLLQSVLYESRNKNSVA | NASTRMS | QQYHRLPLS | 0.20 0.34 -0.03 0.05 0.08 0.13 | 0.13 | 4 of 18 (3.19) |
| 7 | KVEQSFLYESRNKNSVA | NASTRES | QQYHRLPLS | 0.06 -0.23 -0.22 -0.11 -0.01 0.17 | -0.06 | 1 of 18 (2.79) |
| 8 | KLSQSVLYESRNKNSVA | NASQRFS | QQYHRLPLS | 0.01 -0.18 -0.10 -0.31 -0.28 0.04 | -0.14 | 0 of 18 |
| 9 | KVEQSVLYESRNKNSVA | EASTRES | QQYHRLPLS | 1.44 1.14 1.53 1.64 1.33 1.01 | 1.35 | 1 of 18 (4.58) |
| 10 | KISQSQLYESRNKNSVA | NASTRES | QQYHRLPLS | -0.07 -0.27 -0.26 -0.47 -0.21 -0.12 | -0.24 | 1 of 18 (2.72) |
| 11 | KVQQSVLYESRNKNSVA | NASTRMS | QQYHRLPLS | 0.24 0.17 0.02 -0.04 0.00 0.07 | 0.08 | 1 of 18 (2.94) |
| 12 | KLVQSWLYESRNKNSVA | NASQRES | QQYHRLPLS | 0.33 0.35 0.17 0.34 0.38 0.44 | 0.33 | 0 of 18 |
| 13 | KLSFSVLYESRNKNNVA | GASTRES | QQYHRLPLS | -0.37 -0.60 -0.57 -0.60 -0.69 -0.26 | -0.52 | 0 of 18 |
| 14 | KLSQSVEYESRNKNSVA | EASTREQ | QQYHRLPLS | -0.18 -0.15 -0.36 -0.14 -0.18 -0.10 | -0.19 | 2 of 18 (2.35) |
| 15 | ALSQSVLYESRNKNSVA | NASQRES | QQYHRLPLS | 0.04 -0.18 -0.20 -0.25 -0.04 0.02 | -0.10 | 1 of 18 (2.52) |
| 16 | KVSQSELYESRNKNSVA | EASTRLS | QQYHRLPLS | 0.08 -0.21 -0.29 -0.13 -0.28 -0.22 | -0.17 | 0 of 18 |
| 17 | KLEQSQLYESRNKNSVA | NASERES | QQYHRLPLS | -0.23 0.45 -0.08 0.02 0.16 0.07 | 0.06 | 0 of 18 |
| 18 | KLSQSVLYESRNKNSVA | NASQRYS | QQYHRLPLS | 0.28 0.21 0.11 -0.01 0.09 0.35 | 0.17 | 0 of 18 |
| 19 | KLSQSVLYESRNKNSVA | NASQREV | QQYHRLPLS | 0.54 0.15 0.62 0.44 0.50 0.48 | 0.46 | 2 of 18 (3.14) |
| 20 | KMSQSVLMESRNKNSVA | NASTRES | QQYHRLPLS | 0.25 -0.28 -0.38 -0.72 -0.05 -0.30 | -0.25 | 0 of 18 |
| 21 | KLEWSWLYESRNKNSVA | NASQRES | QQYHRLPLS | 0.63 0.70 0.38 -0.16 0.44 0.47 | 0.41 | 0 of 18 |
| 22 | KFEQSDLYESRNKNSVA | NASQRES | QQYHRLPLS | 0.26 -0.14 -0.23 -0.16 -0.28 0.23 | -0.05 | 1 of 18 (2.52) |
| 23 | KLSQSQLYESRNKNSVA | HASTRCS | QQYHRLPLS | 0.30 0.26 0.23 0.14 0.21 0.51 | 0.27 | 0 of 18 |
| 24 | KCSQSVLYESRNKNNVA | EASTRES | QQYHRLPLS | 0.38 -0.08 -0.07 -0.17 0.22 0.10 | 0.07 | 0 of 18 |
| 25 | KLVQSQLYESRNKNSVA | NASQRES | QQYHRLPLS | 1.20 0.34 -0.27 0.19 1.43 0.34 | 0.54 | 0 of 18 |
| 26 | KLQQSELYESRNKNSVA | EASYRES | QQYHRLPLS | 1.10 1.20 0.99 0.90 1.39 1.10 | 1.11 | 0 of 18 |
| 27 | KLPQSVLYESRNKNSVA | SASTRES | QQYHRLPLS | -0.03 0.11 -0.06 -0.33 0.10 0.31 | 0.02 | 0 of 18 |
| 28 | KSSQSQLYESRNKNSVA | NASTRES | QQYHRLPLS | -0.08 -0.18 -0.44 -0.72 0.25 -0.17 | -0.22 | 1 of 18 (1.96) |
| 29 | KLQQSELYESRNKNSVA | EASTREV | QQYHRLPLS | 0.58 0.04 0.20 0.24 0.38 0.57 | 0.33 | 1 of 18 (1.76) |
| 30 | KVQQSELYESRNKNSVA | NASTRES | QQYHRLPLS | 0.68 0.78 0.39 0.62 0.90 0.80 | 0.70 | 4 of 18 (3.56) |
| 31 | KLSQSELYESRMKNSVA | NASTRMS | QQYHRLPLS | 0.34 0.11 0.17 -0.06 0.04 0.19 | 0.13 | 1 of 18 (2.65) |
| 32 | KISQSWLYESRNKNAVA | NASTRES | QQYHRLPLS | -0.32 -0.21 -0.46 -0.50 -0.40 -0.23 | -0.35 | 0 of 18 |
| 33 | KLSQSVWYESRNKNSVA | NASTREQ | QQYHRLPLS | 0.12 -0.10 -0.39 -0.42 -0.04 -0.04 | -0.15 | 1 of 18 (2.79) |
| 34 | KLSQSHLYESRNKNSVA | AASTRES | QQYHRLPLS | 0.39 0.00 0.55 0.03 0.66 0.33 | 0.33 | 0 of 18 |
| 35 | KLEGSWLYESRNKNSVA | NASQRES | QQYHRLPLS | 1.53 1.40 1.34 1.57 1.44 1.07 | 1.39 | 0 of 18 |
| 36 | KLYQSELYESRNKNSVA | NASTRLS | QQYHRLPLS | -0.05 -0.24 -0.24 -0.27 -0.17 -0.04 | -0.17 | 1 of 18 (2.76) |
| 37 | KLSQSFLYESRQKNSVA | NASQRES | QQYHRLPLS | -0.20 -0.59 -0.60 -0.36 -0.49 -0.44 | -0.45 | 0 of 18 |
| 38 | KLPQSNLYESRNKNSVA | NASTREQ | QQYHRLPLS | 0.02 -0.33 -0.23 -0.31 -0.31 -0.18 | -0.22 | 3 of 18 (2.18) |
| 39 | KLSQSDLYESRNKNSVA | NASTRMS | QQYHRLPLS | -0.34 -0.31 -0.38 -0.54 -0.47 -0.22 | -0.38 | 2 of 18 (2.55) |
| 40 | KLSQSVLYESRNKNSVA | NGSTRES | QQYHRLPLS | -0.24 -0.72 -0.84 -0.63 -0.73 -0.58 | -0.62 | 1 of 18 (2.33) |
| 41 | KVSQSWLYESRNKNSVA | NASTRLS | QQYHRLPLS | 0.10 -0.37 0.22 -0.13 0.16 0.28 | 0.04 | 1 of 18 (3.14) |
| 42 | KLSQSDLYESRMKNSVA | NASTRES | QQYHRLPLS | 0.53 0.24 0.04 0.01 0.38 0.29 | 0.25 | 1 of 18 (2.63) |
| 43 | KLPQSDLYESRNKNAVA | EASTRES | QQYHRLPLS | -0.28 -0.31 -0.36 -0.47 -0.16 -0.21 | -0.30 | 1 of 18 (2.64) |
| 44 | KLQQSVLYEERNKNSVA | NASTRLS | QQYHRLPLS | 0.15 -0.03 -0.10 -0.15 -0.13 0.03 | -0.04 | 1 of 18 (2.59) |

The 7 strongest on average among those seen in every replicate, once more:

CDR-L1	CDR-L2	CDR-L3	log10 Kd (nM) by replicate	log10 Kd (nM), mean	signal with controls
KLSQSVLYESRNKNSVA	NGSTRES	QQYHRLPLS	-0.24 -0.72 -0.84 -0.63 -0.73 -0.58	-0.62	1 of 18 (2.33)
KLSFSVLYESRNKNNVA	GASTRES	QQYHRLPLS	-0.37 -0.60 -0.57 -0.60 -0.69 -0.26	-0.52	0 of 18
KLSQSFLYESRQKNSVA	NASQRES	QQYHRLPLS	-0.20 -0.59 -0.60 -0.36 -0.49 -0.44	-0.45	0 of 18
KLSQSDLYESRNKNSVA	NASTRMS	QQYHRLPLS	-0.34 -0.31 -0.38 -0.54 -0.47 -0.22	-0.38	2 of 18 (2.55)
KISQSWLYESRNKNAVA	NASTRES	QQYHRLPLS	-0.32 -0.21 -0.46 -0.50 -0.40 -0.23	-0.35	0 of 18
KLPQSDLYESRNKNAVA	EASTRES	QQYHRLPLS	-0.28 -0.31 -0.36 -0.47 -0.16 -0.21	-0.30	1 of 18 (2.64)
KMSQSVLMESRNKNSVA	NASTRES	QQYHRLPLS	0.25 -0.28 -0.38 -0.72 -0.05 -0.30	-0.25	0 of 18